# Source: PubChem BioAssay AID485346 (Sanford-Burnham Center for Chemical Genomics, 2010)
# Chains of the proteins cited; added tags and fusions are not shown.
# UniProt O15151, whole entry, looked up: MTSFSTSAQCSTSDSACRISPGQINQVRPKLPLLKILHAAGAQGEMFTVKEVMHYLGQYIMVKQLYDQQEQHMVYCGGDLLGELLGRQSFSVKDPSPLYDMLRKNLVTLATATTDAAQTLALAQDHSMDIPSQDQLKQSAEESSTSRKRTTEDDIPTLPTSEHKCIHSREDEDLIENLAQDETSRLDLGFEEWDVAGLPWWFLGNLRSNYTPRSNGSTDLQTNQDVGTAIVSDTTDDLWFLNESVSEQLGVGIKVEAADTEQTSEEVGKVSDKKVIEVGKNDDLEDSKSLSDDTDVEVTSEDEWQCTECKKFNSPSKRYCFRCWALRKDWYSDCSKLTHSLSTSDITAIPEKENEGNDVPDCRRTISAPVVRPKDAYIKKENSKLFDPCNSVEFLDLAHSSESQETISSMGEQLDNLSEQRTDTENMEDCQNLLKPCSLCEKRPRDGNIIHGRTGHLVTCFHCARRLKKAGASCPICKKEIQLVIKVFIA
# UniProt Q00987, whole entry, looked up: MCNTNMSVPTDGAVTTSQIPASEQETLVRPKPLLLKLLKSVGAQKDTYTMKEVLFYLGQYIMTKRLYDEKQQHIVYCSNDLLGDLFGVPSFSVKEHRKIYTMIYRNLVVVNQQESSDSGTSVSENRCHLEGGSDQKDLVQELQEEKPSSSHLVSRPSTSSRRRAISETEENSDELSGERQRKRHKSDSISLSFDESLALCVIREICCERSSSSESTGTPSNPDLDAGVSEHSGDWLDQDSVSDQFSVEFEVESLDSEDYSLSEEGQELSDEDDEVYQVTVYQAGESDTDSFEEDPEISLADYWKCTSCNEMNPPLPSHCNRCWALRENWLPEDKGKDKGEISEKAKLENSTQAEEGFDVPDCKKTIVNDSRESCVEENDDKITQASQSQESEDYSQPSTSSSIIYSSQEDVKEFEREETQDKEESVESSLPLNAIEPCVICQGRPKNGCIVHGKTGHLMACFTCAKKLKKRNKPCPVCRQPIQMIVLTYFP
# This is a selection; strong and weak results do not stand in their true shares. The source made the active and inactive calls.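 Rule for the calls: active = inhibition of at least 50% at 8 µM in the primary screen; inactive = the rest.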
# Target: Protein Mdm4 (Homo sapiens) + E3 ubiquitin-protein ligase Mdm2 (Homo sapiens) (UniProt O15151+Q00987)
# Assay: inhibitors of human Mdm2-MdmX association, primary screen, cell-based, luminescence, split luciferase, SaOS-2, uHTS (AID 485346)
# Settings: SaOS-2 split-luciferase Mdm2/MdmX complementation, at 8 µM, stronger effect = higher value
row,Compound,inhibition
1,CN1CCCCC1COC(=O)C1(O)c2ccccc2CCc2ccccc21 (stereo unspecified),inactive: 14.3%
